Experimental data taken from US20050054025A1 (priority 2003, published 2005).

By UniProt entry, the sequences of proteins in these tests, tags left out. Where a name states a change or a piece, a line headed by the entry shows the natural chain unless it says otherwise.
UniProt P22303: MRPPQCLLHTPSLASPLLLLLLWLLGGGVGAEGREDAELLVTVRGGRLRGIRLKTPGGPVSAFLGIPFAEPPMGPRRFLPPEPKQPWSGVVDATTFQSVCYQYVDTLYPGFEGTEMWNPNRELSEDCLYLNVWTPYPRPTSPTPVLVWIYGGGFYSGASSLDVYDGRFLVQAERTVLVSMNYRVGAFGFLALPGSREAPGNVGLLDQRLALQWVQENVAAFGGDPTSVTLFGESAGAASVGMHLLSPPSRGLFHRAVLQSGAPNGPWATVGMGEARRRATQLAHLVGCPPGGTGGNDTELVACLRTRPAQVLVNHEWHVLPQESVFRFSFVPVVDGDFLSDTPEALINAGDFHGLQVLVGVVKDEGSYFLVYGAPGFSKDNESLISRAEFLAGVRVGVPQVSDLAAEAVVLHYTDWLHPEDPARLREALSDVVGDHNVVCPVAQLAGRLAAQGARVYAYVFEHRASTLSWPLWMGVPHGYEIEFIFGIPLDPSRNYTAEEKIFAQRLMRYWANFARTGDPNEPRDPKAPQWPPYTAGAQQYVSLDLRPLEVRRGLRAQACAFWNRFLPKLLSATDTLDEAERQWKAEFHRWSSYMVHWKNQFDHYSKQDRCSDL

Assays:
[1] = EPA drinking water table, Summer 2002; cited from earlier work
[2] = biological target: acetylcholinesterase (Homo sapiens, UniProt P22303); settings: 5 mm dots, 20 min incubation; organophosphates oxidized with bromine
[3] = test system: acetylcholinesterase; settings: commercial kit, package insert; cited from earlier work

Substance: Parathion (methyl)
- HA [1]: 2 µg/L
- Porex Dot Test IC20 [2]: 2 ng/mL
- EnviroLogix IC20 [3]: 63 μg/L
